Data published in patent publication US20180000771A1, “AGENT FOR PREVENTING AND/OR TREATING AMYOTROPHIC LATERAL SCLEROSIS” (KYOTO UNIVERSITY, priority 2015, published 2018).

Test system: motoneuron cells derived from iPS cells having SOD1-L144FVX mutation
Test: survival of motoneuron cells induced from ALS patient iPS cells (SOD1 mutation)
Details: added at 7 days after addition of doxycycline, cultured for 7 more days

Nc1nc2ccc(OC(F)(F)F)cc2s1 [riluzole]
number of surviving cells: number of surviving cells was high
